What is called Aqueous Solubility is the concentration that dissolves in the medium under given conditions.

Chains of the proteins cited; added tags and fusions are not shown. Lines headed by an entry give the natural chain unless they say otherwise; changes in a name come on top.
UniProt P43116: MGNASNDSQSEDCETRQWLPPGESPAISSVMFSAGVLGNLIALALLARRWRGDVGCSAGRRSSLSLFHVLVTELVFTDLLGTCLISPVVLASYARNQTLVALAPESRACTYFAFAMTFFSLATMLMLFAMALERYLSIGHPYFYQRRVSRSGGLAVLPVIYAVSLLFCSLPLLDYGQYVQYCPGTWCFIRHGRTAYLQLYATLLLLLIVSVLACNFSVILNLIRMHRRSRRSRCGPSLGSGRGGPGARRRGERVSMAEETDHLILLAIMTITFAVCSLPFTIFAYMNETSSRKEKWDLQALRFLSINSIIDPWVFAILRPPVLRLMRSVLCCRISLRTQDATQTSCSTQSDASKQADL

This note sets out measurements from US20250206721A1, “Prostaglandin Receptor EP2 Antagonists, Derivatives, and Uses Related Thereto” (Emory University, priority 2019, published 2025).

For series [1] the following is noted: pH 7.4.
For series [2], the target named is T1, human EP2 receptor (Homo sapiens, UniProt P43116).
T1 construct: expressed in transfected cells
Description: Cell-based cAMP TR-FRET assay, Schild KB on EP2. (Time-resolved FRET reads energy transfer from a long-lived donor to a nearby acceptor.)

The conditions of series [3]: mouse, microsomes.

With “(E)-N-(2-(2-(trifluoromethyl)-1H-indol-1-yl)ethyl)-3-(3,4,5-trimethoxyphenyl)acrylamide [Compound 2a]”, in series [1], the “Aqueous Solubility” value was determined as 70 µM. The same substance showed a Kb in series [2] of 28.6 nM. For the same substance, in series [3], the “MLM T½” value is reported as “metabolized quickly”.
